Molecular target: Glycogen synthase kinase-3 alpha (Homo sapiens, UniProt P49840)
Test: Inhibition of GST-tagged human GSK3A incubated for 90 mins by TR-FRET assay

Amino acid sequences for entries named in this document (tags omitted). A change or cut given only in a name is not applied to a line headed by its entry.
UniProt P49840: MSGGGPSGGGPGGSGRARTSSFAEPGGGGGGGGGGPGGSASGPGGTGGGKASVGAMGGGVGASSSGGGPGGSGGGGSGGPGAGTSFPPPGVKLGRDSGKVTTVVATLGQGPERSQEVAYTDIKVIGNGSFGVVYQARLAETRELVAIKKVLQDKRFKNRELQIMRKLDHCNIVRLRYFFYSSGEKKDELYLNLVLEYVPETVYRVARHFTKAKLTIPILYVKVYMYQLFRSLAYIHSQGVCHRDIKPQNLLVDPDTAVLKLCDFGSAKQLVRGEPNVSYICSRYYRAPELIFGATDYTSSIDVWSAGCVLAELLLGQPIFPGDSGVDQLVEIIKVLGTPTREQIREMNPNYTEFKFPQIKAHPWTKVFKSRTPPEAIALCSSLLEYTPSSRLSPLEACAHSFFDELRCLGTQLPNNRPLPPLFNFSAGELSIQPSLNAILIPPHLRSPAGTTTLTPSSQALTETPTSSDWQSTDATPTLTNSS

CN1CC[C@H](c2c(O)cc(O)c3c(=O)cc(-c4ccccc4Cl)oc23)[C@H](O)C1 [ALVOCIDIB]
IC50: 164 nM | Ki: 81.9 nM

Reference: ChEMBL document CHEMBL6071206, “Development of BODIPY FL SNS 032 as a Versatile Probe for Constitutive Androstane Receptor and Multiple Kinases” (ACS Med Chem Lett, 2024)
